Consider two molecules from publication PMC9264368, “Structural Analysis and Development of Notum Fragment Screening Hits” (ACS Chemical Neuroscience, 2022).

The target of data set [1] is T1, Notum (Homo sapiens, UniProt Q6P988, C330S).
T1 sequence (Q6P988 81-451 C330S): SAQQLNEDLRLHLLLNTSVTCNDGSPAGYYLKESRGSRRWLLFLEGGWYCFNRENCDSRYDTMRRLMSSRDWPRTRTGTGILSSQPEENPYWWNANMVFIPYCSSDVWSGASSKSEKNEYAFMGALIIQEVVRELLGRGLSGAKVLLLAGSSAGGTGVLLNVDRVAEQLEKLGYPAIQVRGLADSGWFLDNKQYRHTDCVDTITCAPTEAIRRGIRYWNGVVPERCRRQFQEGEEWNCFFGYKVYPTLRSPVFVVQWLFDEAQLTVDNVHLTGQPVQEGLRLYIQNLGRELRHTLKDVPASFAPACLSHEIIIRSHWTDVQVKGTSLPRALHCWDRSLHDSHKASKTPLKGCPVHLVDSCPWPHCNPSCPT
In words: biochemical.

Data set [2] concerns the target T1, Notum.

Consider `CCC(=O)Nc1nc(C)cs1` [compound 3, N-(4-Methylthiazol-2-yl)propanamide], for which the IC50 against Notum [1] (IC50 (µM)) and at Notum [1] (Notum IC50) was more than 1000 µM in each case.

For `c1ccn(-c2ccc(N3CCOCC3)cc2)c1` [compound 36], the “LE (ligand efficiency)” value at Notum [2] (LE = 1.4(−pIC50)/HAC) stood at 0.34. Further, the “LLE (lipophilic ligand efficiency)” value at Notum [2] (LLE = pIC50 – clogP) is 1.4. In addition, on Notum [2] (supplementary CSV), the LE came to 0.34 and the LLE turned out to be 1.4. For the same molecule, the midpoint of inhibition at Notum [1] (Notum IC50, OPTS substrate, 10-point curves 30 nM to 1 mM, mean ± s.d. of N = 2–4 unless stated, Table 1 and figures), the IC50, lay at 53 ± 18 µM.
